Key:
[1] = tested on: human bone marrow AML cells; assay: Effect of phage-peptides on differentiation, cell number and viability of freshly obtained AML patient bone marrow cells cultured seven days; assay type: cell-based
Excerpt: The effect of various phage-peptides were studied on the differentiation of cells from two AML patients.

[2] = tested on: human myeloid leukemia cell line HL60; assay: Viability of HL60 cells, trypan blue; assay type: cell-based; conditions: phage 75
Procedure: Studies were conducted of the effects of the free G5 12-8B (artificially synthesized), phage displaying G5 12-8B, the free A2 11-24 peptide, phage displaying the A2 11-24 peptide, a combination of the free G5 and A2 peptides, a combination of pure peptides plus phage displaying the peptides, and several concentrations of peptide.

Row | Sequence | Viability ([1]; Patient 1) | Viability ([1]; Patient 2) | Day 5 Viability [2] | Day 7 Viability [2] | Day 9 Viability [2] | Viability ([1]; Patient 2, listed as GS-12-8B)
1 | EFQQWSGK [G2 11-24] | 62% | 78% | – | – | – | –
2 | IEETARKG [A2 11-24 phage] | 66% | 72% | 99% | 62% | 76% | –
3 | NNATFEDG [G2 12-8A] | 52% | 62% | – | – | – | –
4 | EFQQWSGK [G5 12-8B phage] | 51% | – | 99% | 97% | 57% | 64%
5 | VSEDIYDA [F1 12-8B] | 54% | 64% | – | – | – | –
6 | DEKRGPNE [B4(1)] | 54% | 65% | – | – | – | –

From patent US20030134342A1, “Binding-specific peptides, binding-specific carrier molecules, and uses thereof” (priority 2001, published 2003)
